## scFv variants of Ab-91 (heavy chain) against a SARS-CoV-2 spike peptide

The measurements come from Engelhart et al. 2022 (doi:10.1038/s41597-022-01779-4) through the FLAb antibody collection.

All variants were tested on one target, the spike HR2 peptide PDVDLGDISGINAS (SARS-CoV-2).

Parent: Ab-91, a human scFv built as VL, the linker GGGGSGGGGSGGGGS, VH. Only the CDRs of the heavy chain vary.
VL: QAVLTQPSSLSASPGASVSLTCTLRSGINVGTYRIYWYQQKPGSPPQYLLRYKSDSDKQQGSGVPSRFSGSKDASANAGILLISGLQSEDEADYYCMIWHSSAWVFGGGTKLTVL
VH: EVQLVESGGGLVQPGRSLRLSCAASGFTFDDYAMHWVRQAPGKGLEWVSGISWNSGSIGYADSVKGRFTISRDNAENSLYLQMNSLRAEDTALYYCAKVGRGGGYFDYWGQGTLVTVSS

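Variants in AAYL51 differ from the parent at up to three CDR positions; double and triple changes were sampled at random. The scFvs were displayed on barcoded MATa yeast, the peptide on MATalpha yeast. Mating (16 h, 30 °C) was followed by selection of diploids and sequencing of their barcodes. A regression on co-assayed BCL2-family reference pairs converts the normalised counts of each replicate to an apparent Kd. Mating was done three times.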

Changes read parent residue, position, new residue, counted from the first residue of the VH shown. The Kd shown is the geometric mean over detected replicates; a lower Kd is a better binder. An entry "not detected" has no value in the source: the pair was not observed among the diploids in any replicate. This suggests poor binding but is not conclusive. Nonspecific signal, from three strains lacking the peptide, appeared in 21% of pairings of library AAYL51, centred on 34 µM (5% of these signals below 1.8 µM); values are not corrected for it.

apparent Kd | seen in | changes
not detected | 0 of 3 | A61M+D62C+G103H
not detected | 0 of 3 | M34T+H35V+A61Y
190 nM | 3 of 3 | I51T+I58C+Y108S
43 µM | 3 of 3 | S55H+S63E
not detected | 0 of 3 | D31G+R101M+F106A
44 µM | 3 of 3 | M34R+H35D+G50H
82 µM | 3 of 3 | S57V+Y60H
120 µM | 1 of 3 | G26L+A33I+S57T
not detected | 0 of 3 | A33D+H35V+W53M
22 nM | 3 of 3 | F27Y+Y105P+D107Y
91 µM | 1 of 3 | G26Q+G100M+F106V
not detected | 0 of 3 | G50P+W53R+G104M
36 µM | 2 of 3 | S52W+W53K+D62P
8.1 µM | 1 of 3 | G56E+G100A+G104R
not detected | 0 of 3 | I58Y+S63R+Y105M
not detected | 0 of 3 | W53S+I58Y+G103W
110 µM | 1 of 3 | G100R+R101N+Y105V
140 µM | 2 of 3 | N54L+G56Q+R101S
not detected | 0 of 3 | M34K+V64M+R101Q
170 µM | 3 of 3 | F29K+D31N+I58D
18 µM | 1 of 3 | A33L+Y60G+F106Y
not detected | 0 of 3 | T28M+W53T+S55Y
310 µM | 3 of 3 | S52H+A61P+F106W
97 µM | 3 of 3 | G59K+V64M+K65N
not detected | 0 of 3 | F29V+G59V+G103T
440 nM | 3 of 3 | D30Q+Y60H+S63G
not detected | 0 of 3 | S55I+G104N
62 µM | 3 of 3 | F27N+H35R+A61G
87 µM | 3 of 3 | T28Y+M34C+H35G
not detected | 0 of 3 | Y32Q+G102H
70 µM | 2 of 3 | I58D+A61P+Y108D
16 µM | 2 of 3 | D30I+A33M+W53Y
not detected | 0 of 3 | Y32Q+A33W+H35C
34 µM | 1 of 3 | S57C+G104M+F106Y
63 µM | 2 of 3 | I51H+G56I+D62Q
37 µM | 2 of 3 | I58N+Y60P+R101D
590 nM | 3 of 3 | S55G+G56H+K65Y
not detected | 0 of 3 | F29P+M34V+G59A
130 µM | 1 of 3 | Y32A+G59Q+A61P
130 µM | 1 of 3 | T28S+A33H+G100W
not detected | 0 of 3 | D30L+G50S
not detected | 0 of 3 | S52P+S57D+G100Y
not detected | 0 of 3 | F27K+T28E+I58Y
220 µM | 1 of 3 | D30V+V64D+G100C
1.9 µM | 2 of 3 | I51W+K65E+G104N
not detected | 0 of 3 | G50W+W53Y+A61G
21 µM | 2 of 3 | I51T+G100L+R101K
590 nM | 1 of 3 | G26W+R101H+G104P
not detected | 0 of 3 | Y60V+G103M
1.0 µM | 1 of 3 | M34S+R101P+Y108H
71 µM | 1 of 3 | G50P+V64F+K65I
not detected | 0 of 3 | Y32W+N54C+G100Y
not detected | 0 of 3 | F27T+D31W+G59D
20 µM | 1 of 3 | G50N+S57G+G102W
not detected | 0 of 3 | A33V+R101L+G104H
14 µM | 1 of 3 | S55T+I58C+V99H
170 µM | 2 of 3 | Y32K+G59Y+G103Q
not detected | 0 of 3 | Y32R+G59S+V64T
14 µM | 2 of 3 | G26W+D30S+G103W
510 µM | 2 of 3 | A33W+I51L+G102N
31 µM | 1 of 3 | I51D+V64L
not detected | 0 of 3 | I51T+A61Q+D62V
not detected | 0 of 3 | M34R+I58K+A61F
27 nM | 3 of 3 | Y32V+R101A+Y108G
11 µM | 1 of 3 | D31E+M34D+D107Y
72 µM | 3 of 3 | N54D+K65D+D107G
15 µM | 3 of 3 | A33R+I51C+R101H
300 µM | 2 of 3 | M34P+G103S+G104L
18 µM | 1 of 3 | M34C+I51R+G59H
3.2 µM | 1 of 3 | A33N+S52V+F106R
not detected | 0 of 3 | T28K+F29H+Y32E
350 µM | 2 of 3 | Y105H+D107N+Y108P
28 µM | 2 of 3 | G50M+I51S
not detected | 0 of 3 | F27L+T28S+G59M
not detected | 0 of 3 | G56E+Y60R+V99S